Earlier results on 1 substance are cited in US20020001615A1, “Combined interferon alfa and lipsosmal-encapsulated all-trans retinoic acid, including preparation and use” (Aronex Pharmaceuticals, Inc., priority 2000, published 2002).

The series relates to metastatic RCC. Conditions: IL-2 based therapy.

“IL-2: Interleukin-2, biological response modifier”: the “proportion of patients experiencing significant responses” value is reported as “approximately 15%”.
